In patent US20100143992A1, “Process for Fermentive Preparation of Alcohols and Recovery of Product” (E. I du Pont de Nemours and Company, priority 2008, published 2010):

Key:
[1] = Extraction of ethanol from an aqueous solution by ionic liquid; format: physicochemical; settings: 5 vol % ionic liquid
[2] = Extraction of isobutanol from an aqueous solution by ionic liquid; format: physicochemical; settings: 5 vol % ionic liquid
[3] = percentage of alcohol remaining in control

Substance: 1-Ethyl-3-methylimidazolium levulinate [[EMIM] [Lev]]
- g/L ethanol left in solution ([1]; 3 mL aqueous solution, about 31 g/L ethanol, overnight equilibration, control 30.2): 28.9 g/L
- mM Ethanol (in solution after extraction) ([1]; 3 mL aqueous solution, about 31 g/L ethanol, overnight equilibration, control 655): 628 mM
- % EthOH Extracted [1, 3]: 4.09%
- g/L isobutanol left in solution ([2]; 3 mL aqueous solution, about 31 g/L isobutanol, overnight equilibration, control 32.3): 30.8 g/L
- mM isobutanol (in solution after extraction) ([2]; 3 mL aqueous solution, about 31 g/L isobutanol, overnight equilibration, control 436): 415 mM
- % isobutanol Extracted [2, 3]: 5.03%
